Data on one molecule can be found in ChEMBL document CHEMBL3352566 (Bioorg Med Chem Lett, 2014).

Chains of the proteins cited; added tags and fusions are not shown.
UniProt P0DMS8, whole entry: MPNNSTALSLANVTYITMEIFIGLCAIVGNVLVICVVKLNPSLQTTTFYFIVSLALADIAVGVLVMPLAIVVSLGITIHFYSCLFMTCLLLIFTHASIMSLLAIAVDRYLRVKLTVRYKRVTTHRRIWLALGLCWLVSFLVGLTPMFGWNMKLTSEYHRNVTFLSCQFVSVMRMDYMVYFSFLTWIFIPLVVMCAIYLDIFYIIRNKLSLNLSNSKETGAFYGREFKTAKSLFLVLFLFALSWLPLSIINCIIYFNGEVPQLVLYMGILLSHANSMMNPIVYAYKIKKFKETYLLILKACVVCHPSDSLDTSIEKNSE

SMILES strings stand for the structures. pKi: −log10 of the molar value.

One test addresses Adenosine receptor A3 (Homo sapiens, UniProt P0DMS8). Description: Displacement of [125I]N6-(4-amino-3-iodobenzyl)adenosine-5'-N-methyluronamide from human A3AR expressed in CHO cells after 60 mins by scintillation counting analysis. Type of test: cell-based. A general note: In a radioligand displacement assay an active substance lowers the binding of a labelled ligand.
For another test, the target named is Adenosine receptor A2a (Homo sapiens, UniProt P29274). Kind of test: Displacement of [3H]2-[p-(2-carboxyethyl)phenyl-ethylamino]-5'-N-ethylcarboxamido-adenosine from human A2aAR expressed in HEK293 cells after 60 mins by scintillation counting analysis. Type of test: cell-based.

In general, pKi refers to −log10 of the Ki, conventionally taken in molar units. A low value points to a large Ki. `OC[C@H]1O[C@@H](n2cnc3c(NC4CC4c4ccccc4)nc(C#Cc4ccccc4)nc32)[C@H](O)[C@@H]1O` (mixture of isomers): the pKi is 9.07 on Adenosine receptor A3 and 5.60 on Adenosine receptor A2a.
